Measurements: patent publication US7153824B2, “Inhibitors of phosphodiesterases in infertility” (Applied Research Systems ARS Holding N.V., priority 2003, dated 2006)
Several values for one entry are separate records, joined by “and”; a condition that tells them apart may be missing. Identical values can stand only once.

Experiments:
[1] = tested on: Immature Sprague Dawley CD (SD) BR female rats; assay: Histological count of secondary and antral follicles in rat ovaries; type: in vivo
Experimental: Experiments were conducted according to the In Vivo Rat Follicle Maturation Assay, described above. In one experiment, ovaries were harvested from rats at midday of the second day of treatment for histological analysis, prior to the last set of injections. These rats received only the first three doses of FSH and test compound prior to euthanasia and organ harvest. The secondary follicles were evaluated by counting the total number of secondary follicles: including both small follicles (those at any intermediate stage of maturation, having a multilayered granulosa with the first, scattered vacuoles, but without an antrum) and antral follicles (those having antral dilation, with an external diameter of around 500 microns, or higher, with or without thinning of the granulosa cell layer). The antral follicles (≧500 mcm) were also counted separately.

[2] = tested on: Immature Sprague Dawley CD (SD) BR female rats; assay: In vivo Rat Follicle Maturation Assay (ovulated oocytes after r-hCG)
Excerpt: In vivo Rat Follicle Maturation Assay: Immature female rats arrived on Friday of the week prior to the experimentation at 18–19 days of age along with a lactating female (ten pups per lactating female). All rats were weaned from the mother on the following Monday (21–22 days old) and were randomly sorted into the experimental groups (6–8 animals/group).
The rats were subcutaneously injected (in the scruff of the neck) twice a day for two days (first injection: 8.30–9.00 and second injection 15.30–16.00) with r-hFSH or vehicle (PBS) at a volume of 250 μL/injection. The doses of FSH injected were either suboptimal (606 ng/rat total dose split over four injections; indicated as ‘Low FSH’ in Figures) or high (2424.8 ng/rat total dose split over 4 injections; indicated as ‘High FSH’ in Figures) as a positive control.
In addition to the above injections, rats were also injected subcutaneously with the test compounds or vehicle twice a day for 2 days at indicated doses (mg/kg/injection), concomitantly with the FSH injections. These compounds were diluted in either NP3S (n-methyl-2-pyrrolidone 5%, polyethylene glycol 400 30%, polyethylene glycol 200 25%, propylene glycol 20%, saline 20%) or aqueous vehicles. Therefore, the total number of injections received by each rat to promote follicle growth was eight, including four injections of r-hFSH or r-hFSH vehicle plus four injections of test compound or test compound vehicle. […]
Pairs of oviducts were placed on one slide and then a slide was placed on top of the first slide using a piece of tape to secure the frosted ends of the slides together. […] The oviducts were then examined by a light microscope under contrast phase conditions (at a minimum of 40× magnification) and the ova, if any, present in the two ampullae for each rat were counted. […]
The proportion of ovulating animals, the average number ova present in the ampulla per rat, and the average ovary weight were calculated from the single values in each experimental group and the relevant graphs were plotted. […]

[3] = High FSH alone (606.2 ng×3 per rat)
[4] = Low FSH alone (151.5 ng×3 per rat)

FSH: Human recombinant follicle stimulating hormone (r-hFSH) supplied by Laboratoires Serono Aubonne
total number of antral follicles per rat (2 ovaries) [1, 3]: 9.5 | total number of secondary follicles per rat (2 ovaries) [1, 3]: 64 | total number of antral follicles per rat (2 ovaries) [1, 4]: 4.1 | total number of secondary follicles per rat (2 ovaries) [1, 4]: 64 | average number of oocytes per rat ([2]; FSH low dose alone (151.5 ng×4 per rat s.c.) plus compound vehicle, control of each experiment): one and 2.4 and 1 and 5 | rats ovulated ([2]; FSH low dose alone plus compound vehicle, control of each experiment): 4 out of ten and 5 out of ten and 3 out of ten and 2 out of 8 | average number of oocytes per rat ([2]; high dose FSH alone (606.2 ng×3 per rat as printed)): 21 and 20 and 15–18
